Assay [1] concerns the target T1, Cannabinoid receptor 2 (Rattus norvegicus, UniProt Q9QZN9).
T1 sequence (Q9QZN9 whole entry): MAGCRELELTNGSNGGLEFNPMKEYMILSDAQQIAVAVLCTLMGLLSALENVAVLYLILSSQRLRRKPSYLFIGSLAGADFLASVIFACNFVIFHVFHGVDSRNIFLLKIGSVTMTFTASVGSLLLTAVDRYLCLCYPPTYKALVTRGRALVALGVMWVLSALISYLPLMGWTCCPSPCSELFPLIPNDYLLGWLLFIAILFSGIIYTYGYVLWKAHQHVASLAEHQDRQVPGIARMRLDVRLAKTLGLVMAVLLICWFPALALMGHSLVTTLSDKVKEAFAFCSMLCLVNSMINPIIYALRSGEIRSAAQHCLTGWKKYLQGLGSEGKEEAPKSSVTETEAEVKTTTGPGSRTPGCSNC

By UniProt entry, the sequences of proteins in these tests, tags left out. Where a name states a change or a piece, a line headed by the entry shows the natural chain unless it says otherwise.
UniProt P20272, whole entry: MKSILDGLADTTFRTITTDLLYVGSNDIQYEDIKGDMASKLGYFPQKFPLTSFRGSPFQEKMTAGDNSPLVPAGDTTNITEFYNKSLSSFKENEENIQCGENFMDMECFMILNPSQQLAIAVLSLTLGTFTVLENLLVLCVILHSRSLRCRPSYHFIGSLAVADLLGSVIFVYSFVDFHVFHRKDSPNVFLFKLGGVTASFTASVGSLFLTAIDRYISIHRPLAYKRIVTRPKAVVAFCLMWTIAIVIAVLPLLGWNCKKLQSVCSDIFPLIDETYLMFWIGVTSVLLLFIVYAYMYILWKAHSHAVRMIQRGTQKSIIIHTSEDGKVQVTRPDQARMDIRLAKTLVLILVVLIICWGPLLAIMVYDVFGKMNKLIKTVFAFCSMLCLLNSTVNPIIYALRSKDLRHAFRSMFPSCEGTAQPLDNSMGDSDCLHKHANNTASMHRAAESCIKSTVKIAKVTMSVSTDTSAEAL
UniProt P47936: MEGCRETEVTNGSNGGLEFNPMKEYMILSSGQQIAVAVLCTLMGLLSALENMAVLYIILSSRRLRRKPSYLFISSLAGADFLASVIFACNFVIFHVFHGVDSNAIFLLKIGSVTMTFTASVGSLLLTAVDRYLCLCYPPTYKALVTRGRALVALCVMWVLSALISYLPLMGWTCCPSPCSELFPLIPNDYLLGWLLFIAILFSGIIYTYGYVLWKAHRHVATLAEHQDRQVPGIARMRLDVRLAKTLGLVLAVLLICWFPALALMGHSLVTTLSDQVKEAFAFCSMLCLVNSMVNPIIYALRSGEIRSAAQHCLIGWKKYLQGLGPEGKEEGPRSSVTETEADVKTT
UniProt P21554, whole entry: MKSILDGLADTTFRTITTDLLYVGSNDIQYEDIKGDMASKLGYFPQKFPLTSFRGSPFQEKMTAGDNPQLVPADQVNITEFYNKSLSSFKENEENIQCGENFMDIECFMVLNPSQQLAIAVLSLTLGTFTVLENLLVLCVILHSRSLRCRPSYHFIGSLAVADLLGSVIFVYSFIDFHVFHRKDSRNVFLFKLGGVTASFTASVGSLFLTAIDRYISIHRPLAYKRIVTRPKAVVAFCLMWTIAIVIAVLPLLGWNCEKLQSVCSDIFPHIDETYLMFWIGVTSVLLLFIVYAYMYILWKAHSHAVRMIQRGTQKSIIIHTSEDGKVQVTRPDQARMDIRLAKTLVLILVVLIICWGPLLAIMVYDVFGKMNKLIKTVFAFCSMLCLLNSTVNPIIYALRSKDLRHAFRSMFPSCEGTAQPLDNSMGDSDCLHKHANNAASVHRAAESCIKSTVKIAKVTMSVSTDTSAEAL

Assay [2] concerns the target Cannabinoid receptor 1 (Rattus norvegicus, UniProt P20272).
Assay [3] addresses Cannabinoid receptor 2 (Mus musculus, UniProt P47936).
The target of assay [4] is Cannabinoid receptor 1 (Homo sapiens, UniProt P21554).

pKi: −log10 of the molar value.

The term pKi denotes −log10 of the Ki, conventionally taken in molar units. Read a low pKi as a large Ki. Regarding `Cc1ccc(Cn2nc(C(=O)NC3C(C)(C)C4CC[C@@]3(C)C4)cc2-c2ccc(Cl)c(C)c2)cc1` (some centres undefined) [N-(1,3,3-trimethylbicyclo(2.2.1)heptan-2-yl)-5-(4-chloro-3-methylphenyl)-1-(4-methylbenzyl)pyrazole-3-carboxamide], the negative-log Ki (pKi) is 9.62 on Cannabinoid receptor 2 [1], 7.56 at Cannabinoid receptor 1 [2], 10.40 on Cannabinoid receptor 2 [3] and 7.30 on Cannabinoid receptor 1 [4].
